Measured values as given in PMC7866885, “A novel bicyclic 2,4-diaminopyrimidine inhibitor of Streptococcus suis dihydrofolate reductase” (PeerJ, 2021).

Biological target: T1, S. suis dihydrofolate reductase (SsDHFR) (Streptococcus suis, UniProt A0A0H3N4C4)
T1 construct: gene dyr; full-length dhfr in pET15b (NdeI/BamHI, N-terminal vector tag kept); clarified lysate of E. coli BL21(DE3), not purified
T1 sequence (A0A0H3N4C4 1-170): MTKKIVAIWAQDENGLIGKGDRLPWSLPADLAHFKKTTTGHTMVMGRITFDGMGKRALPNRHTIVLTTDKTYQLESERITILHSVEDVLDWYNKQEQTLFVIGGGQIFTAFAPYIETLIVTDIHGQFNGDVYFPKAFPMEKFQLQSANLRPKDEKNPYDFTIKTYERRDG
Assay: DHFR activity, NADPH consumption at […] nm
Type: biochemical
Settings: 1 µM inhibitor; 0.1 mM dihydrofolate, 0.1 mM NADPH, 50 mM TES pH 7.0; lysate of overexpressing E. coli BL21(DE3), host DHFR background present

CN(Cc1cnc2nc(N)nc(N)c2n1)c1ccc(C(=O)N[C@@H](CCC(=O)O)C(=O)O)cc1 [methotrexate]
% activity at 1 μM: Methotrexate and MMV675968 inhibited SsDHFR more effectively that trimethoprim
